Molecular target: T1, multidrug and toxin extrusion protein (MATE) 1 (SLC47A1) (Homo sapiens, UniProt Q96FL8)
T1 sequence (Q96FL8 1-570): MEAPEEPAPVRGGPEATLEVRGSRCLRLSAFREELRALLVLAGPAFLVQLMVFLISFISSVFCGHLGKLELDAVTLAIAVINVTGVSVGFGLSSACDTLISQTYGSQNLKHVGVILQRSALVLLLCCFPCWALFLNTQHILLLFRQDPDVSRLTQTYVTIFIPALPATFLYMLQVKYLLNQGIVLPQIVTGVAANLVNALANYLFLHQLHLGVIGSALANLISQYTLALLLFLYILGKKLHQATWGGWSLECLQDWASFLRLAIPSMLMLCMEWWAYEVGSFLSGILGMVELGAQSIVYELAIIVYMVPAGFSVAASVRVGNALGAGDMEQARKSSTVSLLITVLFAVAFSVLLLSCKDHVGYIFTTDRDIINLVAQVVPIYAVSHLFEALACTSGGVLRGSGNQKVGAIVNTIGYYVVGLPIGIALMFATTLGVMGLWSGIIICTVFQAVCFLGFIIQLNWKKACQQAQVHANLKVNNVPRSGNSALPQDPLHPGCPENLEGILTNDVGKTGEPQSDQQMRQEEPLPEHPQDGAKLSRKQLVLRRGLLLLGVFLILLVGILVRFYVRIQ
Assay: In vitro SLC transporter inhibition: MATE1-mediated [14C]-metformin uptake

CN/C(=N/CCSCc1nc[nH]c1C)NC#N [Cimetidine, cimetidine]
MATE1 K i (equates to IC50 (probe ≪≪ Km, assuming competitive inhibition)): 1.22 µmol/L | IC50 (≅K i) values MATE1 (probe [14C]-metformin 100 μmol/L, 1.5 min, mean ± SD of three experiments): 1.22 ± 0.0870 µmol/L

From paper PMC5625161 (Pharmacology Research & Perspectives, 2017)
